{
  "source": "PubChem BioAssay AID827",
  "about": "(SRMLSC, 2007)",
  "note": "The entries are a selection whose mix differs from that of the whole data set. Active and inactive are the calls of the source.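 Rule for the calls: active = viability at or below a set limit, 4 SD under the median of all tested compounds (cut at about 3.7% in these data); inactive = the rest.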",
  "data": [
    {"assay": "growth suppression of PTEN-null HCT116, primary screen, cell-based, CellTiter-Glo (AID 827);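 note: PTEN knockout HCT116 line with beta catenin targeted HCT116 as companion control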", "details": "60 h, at 10 µM, hits give low values", "values": [
      {"smiles": "COc1ccc(NC2CCN(CCc3ccccc3)CC2)c(OC)c1", "viability": "inactive: 103%"},
      {"smiles": "O=C(OC1CN2CCC1CC2)C1c2ccccc2Oc2ccccc21", "note": "(stereo not drawn)", "viability": "inactive: 93%"},
      {"smiles": "O=C(NCC1(N2CCOCC2)CCCCC1)c1cc2ccccc2o1", "viability": "inactive: 82.9%"},
      {"smiles": "N#CC1(Nc2ccccc2)CCN(CCc2ccccc2)CC1", "viability": "inactive: 98%"},
      {"smiles": "O=C(NCC1(N2CCOCC2)CCCCC1)c1cc(=O)[nH]c2ccccc12", "viability": "inactive: 92.9%"},
      {"smiles": "CN1CCN(CCOC(=O)C(O)(c2ccccc2)c2ccccc2)CC1", "viability": "inactive: 104%"},
      {"smiles": "c1ccc(CN2CCC(Nc3ccccc3)CC2)cc1", "viability": "inactive: 95.4%"},
      {"smiles": "O=C(OC1CN2CCC1CC2)C1c2ccccc2C=Cc2ccccc21", "note": "(stereo not drawn)", "viability": "inactive: 65.2%"},
      {"smiles": "N/C(=N\\O)c1c(N)no[n+]1[O-]", "viability": "inactive: 89.9%"},
      {"smiles": "CCOc1ncccc1C(=O)NCC1(N2CCOCC2)CCCCC1", "viability": "inactive: 97.5%"},
      {"smiles": "CCC(CO)(C(=O)OC1CN2CCC1CC2)c1ccccc1", "note": "(stereo not drawn)", "viability": "inactive: 109%"},
      {"smiles": "Fc1ccccc1NC1CCN(Cc2ccccc2)CC1", "viability": "inactive: 95.3%"},
      {"smiles": "CCN1CCC(Nc2cccc(F)c2)CC1", "viability": "inactive: 105%"}
    ]}
  ]
}
